According to patent US9295724B2, “Stable formulations for parenteral injection of peptide drugs” (Xeris Pharmaceuticals, Inc., priority 2011, dated 2016):

Assay: Effect of pH on pramlintide solubility in DMSO
Assay type: physicochemical
Method: Pramlintide acetate was dissolved in H2O at 2 mg/mL with either a 10 mM citrate buffer, pH 4 or 10 mM phosphate buffer, pH 7. These solutions were lyophilized to dryness ([…]) using a conservative cycle and reconstituted to various nominal concentrations in DMSO. Solubility was measured by visual inspection for clarity and turbidity via A630.

solubility in DMSO (pH memory of 4, low concentration): soluble
solubility in DMSO (pH memory of 7): At no concentration
Structure (SMILES): CC[C@H](C)[C@H](NC(=O)[C@@H]1CCCN1C(=O)CNC(=O)[C@H](Cc1ccccc1)NC(=O)[C@H](CC(N)=O)NC(=O)[C@H](CC(N)=O)NC(=O)[C@H](CO)NC(=O)[C@H](CO)NC(=O)[C@H](Cc1c[nH]cn1)NC(=O)[C@@H](NC(=O)[C@H](CC(C)C)NC(=O)[C@H](Cc1ccccc1)NC(=O)[C@H](CC(N)=O)NC(=O)[C@H](C)NC(=O)[C@H](CC(C)C)NC(=O)[C@H](CCCNC(=N)N)NC(=O)[C@H](CCC(N)=O)NC(=O)[C@@H](NC(=O)[C@H](C)NC(=O)[C@@H]1CSSC[C@H](NC(=O)[C@@H](N)CCCCN)C(=O)N[C@@H](CC(N)=O)C(=O)N[C@@H]([C@@H](C)O)C(=O)N[C@@H](C)C(=O)N[C@@H]([C@@H](C)O)C(=O)N1)[C@@H](C)O)C(C)C)C(=O)N[C@@H](CC(C)C)C(=O)N1CCC[C@H]1C(=O)N1CCC[C@H]1C(=O)N[C@H](C(=O)N[C@@H](CC(N)=O)C(=O)N[C@H](C(=O)NCC(=O)N[C@@H](CO)C(=O)N[C@@H](CC(N)=O)C(=O)N[C@H](C(=O)N[C@@H](Cc1ccc(O)cc1)C(N)=O)[C@@H](C)O)C(C)C)[C@@H](C)O [pramlintide, Pramlintide acetate]
